{"source": "patent US7842470B2", "about": "“Method for pharmacoperones correction of GnRHR mutant protein misfolding” (Oregon Health & Science University, priority 2001, dated 2010)", "test_system": "mouse and rat GnRHR bearing human HH mutations"}
{"smiles": "Cc1cc(C)cc(-c2[nH]c3ccc(C(C)(C)C(=O)N4CC5CCC4CC5)cc3c2[C@H](C)CNCCc2ccncc2)c1", "note": "[IN3, (2S)-2-[5-[2-(2-azabicyclo[2.2.2]oct-2-yl)-1,1-dimethyl-2-oxoethyl]-2-(3,5-dimethylphenyl)-1H-indol-3-yl]-N-(2-pyridin-4-ylethyl)propan-1-amine]", "values": [{"measurement": "concentration of IN3 that results in optimum rescue", "result": 1, "unit": "µg/mL"}]}
